# B1: r-GILZ: recombinant glucocorticoid induced leucine zipper protein (Abnova; OriGene with C-terminal DDK) (protein)
# Protein sequences, listed by entry. Tags and fused reporters are not part of them. Residues count along the entry.
# UniProt Q04206, whole entry: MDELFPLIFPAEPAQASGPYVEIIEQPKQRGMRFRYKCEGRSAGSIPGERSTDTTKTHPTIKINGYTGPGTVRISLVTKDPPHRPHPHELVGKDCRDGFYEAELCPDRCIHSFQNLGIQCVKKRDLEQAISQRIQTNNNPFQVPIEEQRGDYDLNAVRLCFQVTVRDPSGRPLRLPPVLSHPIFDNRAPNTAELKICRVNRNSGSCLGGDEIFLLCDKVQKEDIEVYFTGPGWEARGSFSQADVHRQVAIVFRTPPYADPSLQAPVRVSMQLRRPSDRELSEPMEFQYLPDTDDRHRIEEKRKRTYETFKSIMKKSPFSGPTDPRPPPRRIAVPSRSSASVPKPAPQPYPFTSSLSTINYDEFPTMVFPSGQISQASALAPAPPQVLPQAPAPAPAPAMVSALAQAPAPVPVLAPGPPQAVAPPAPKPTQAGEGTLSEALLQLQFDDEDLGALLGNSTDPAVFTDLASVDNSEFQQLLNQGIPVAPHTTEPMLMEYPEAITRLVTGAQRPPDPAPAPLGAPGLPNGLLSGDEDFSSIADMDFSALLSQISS
# UniProt Q04206, 1-537 limits assumed, stated change not applied: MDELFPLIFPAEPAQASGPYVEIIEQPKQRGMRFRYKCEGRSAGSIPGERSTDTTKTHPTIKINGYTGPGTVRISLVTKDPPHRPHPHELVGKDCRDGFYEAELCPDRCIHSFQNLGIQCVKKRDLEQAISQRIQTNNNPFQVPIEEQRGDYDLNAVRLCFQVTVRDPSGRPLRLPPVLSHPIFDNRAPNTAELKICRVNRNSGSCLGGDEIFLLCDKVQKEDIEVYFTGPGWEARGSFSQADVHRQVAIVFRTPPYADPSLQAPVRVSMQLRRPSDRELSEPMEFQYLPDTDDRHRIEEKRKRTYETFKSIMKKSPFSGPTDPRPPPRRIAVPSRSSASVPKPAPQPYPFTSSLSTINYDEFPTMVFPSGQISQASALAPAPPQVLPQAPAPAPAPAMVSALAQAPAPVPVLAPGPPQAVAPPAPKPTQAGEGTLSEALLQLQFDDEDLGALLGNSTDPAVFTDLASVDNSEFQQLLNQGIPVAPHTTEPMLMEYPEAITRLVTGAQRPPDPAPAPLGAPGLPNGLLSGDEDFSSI
# chain: MNTEMYQTPMEVAVYQLHNFSISFFSSLLGGDVVSVKLDNSASGASVVAIDNKIEQAMDLVKNHLMYAVREEVEILKEQIRELVEKNSQLERENTLLKTLASPEQLEKFQSCLSPEEPAPESPQVPEAPGGSAV
# modifications: optional C-terminal DDK tag
# Assays:
# [1] = biological target: T1, recombinant human p65 protein (r-p65) (Homo sapiens, UniProt Q04206); test: GILZ:p65 direct binding and kinetics by modified ELISA
# T1 construct: control-P at varying concentrations was probed with full-length r-p65-DDK; purchased OriGene Technologies Inc., Rockville, Md
# Description: To detect direct interaction, ELISA plates were coated with increasing concentrations of the GILZ protein and probed with increasing concentrations of the p65 protein followed by detection with anti-human GILZ mAb. To detect binding of cellular GILZ and p65, ELISA plates were coated with the p65 protein (20 ng), and probed with the cytoplasmic fraction from T cells. Binding of the plate bound p65 with the cytoplasmic GILZ protein was detected with anti-human GILZ mAb. Alternatively, wells coated with the GILZ-GST protein (20 ng) were probed with the nuclear fractions from T cells and the GILZ:nuclear p65 binding was detected with anti-human p65 mAb. The bound complex was detected with TNB at absorbance of 450 nm.
# (§1) High binding ELISA plates coated with 40 μM r-p65/r-GILZ were probed with cytoplasmic/nuclear extracts, respectively, of CD4+ peripheral blood mononuclear cells stimulated with purified protein derivative (10 units/ml) for 48 h in the presence of dexamethasone (100 μg/ml). Binding of the plate-bound r-p65 with cytoplasmic GILZ and the plate-bound GILZ with nuclear p65 was detected with anti-GILZ mAb or anti-p65 mAb, respectively, followed by trinitrobenzene substrate. For detecting direct interaction of r-GILZ (5-40 μM), captured wells were probed with r-p65 (0.325-40 μM) at 22° C. for 2 h and detected with peroxidase-conjugated anti-GILZ mAb followed by trinitrobenzene substrate. Alternatively plates coated with GILZ-P, control-P (3.9-250 μM), r-GILZ (0.2-1.8 μM) were probed with 40 μM r-p65:DDK/p65ΔC14 and detected with anti-DDK/anti-p65 mAb, respectively. Absorbance at 650 nm was measured between 0 and 300 s with a mixing time of 0.30 s and a 5-s interval between readings.
# p65ΔC14 = biological target: T2, p65ΔC14 (Homo sapiens, UniProt Q04206); test: GILZ binding ELISA with partial length p65; conditions: detected with anti-p65 mAb
# T2 construct: purchased Active Motif, Carlsbad, Calif
# Description: as §1
molecule,measurement,setting,value
B1,time at which maximum absorbance was reached in binding with r-p65,[1],210 s
same,adjusted velocity of the interaction with r-p65,[1]; at 1:4 molar concentrations,7.5 s⁻¹
same,p65 binding (absorbance) of plate-bound agent probed with full-length r-p65,"[1]; varying coating concentrations, 40 μM r-p65",decreased with decreasing concentrations
same,absorbance of plate-bound agent probed with p65ΔC14,p65ΔC14,Absorbance over background was not observed
